Binding of CDR-mutated scFvs to a peptide of the spike HR2 region

Data: MIT Lincoln Laboratory AlphaSeq set, Li et al. 2023, doi:10.1038/s41467-023-39022-2, as distributed in FLAb.

The target is the same throughout: PDVDLGDISGINAS, from the HR2 region of SARS-CoV-2 spike.

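Phage display of a naive human antibody library on the peptide gave the parent. This is the validation round: designs drawn from the data on random variants, tested in the same kind of assay. Their group label is 14H_Rand (Rand: our label for a block that the file lists under HC and that is probably the random mutants of the ten best first-round binders). Affinity was read by AlphaSeq, a pooled yeast mating assay with surface-displayed partners. Binding brings cells together so that they mate, and sequencing counts the barcode pairs among the diploids. Scores were corrected for input abundance and mapped to Kd with protein pairs of known affinity run in the same pool. Mating was done six times.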

Ab-14 is the parent antibody, in scFv form: VH, then a 15-residue (Gly4Ser)3 linker, then VL. The light chain is unchanged in all variants.
VH: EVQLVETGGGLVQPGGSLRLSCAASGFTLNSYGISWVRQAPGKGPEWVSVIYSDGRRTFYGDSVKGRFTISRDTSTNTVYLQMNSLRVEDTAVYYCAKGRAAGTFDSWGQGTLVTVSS
VL: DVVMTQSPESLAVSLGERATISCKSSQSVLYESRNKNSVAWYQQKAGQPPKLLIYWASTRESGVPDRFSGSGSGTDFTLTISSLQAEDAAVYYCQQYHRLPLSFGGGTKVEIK

The parent's heavy chain CDRs are GFTLNSYGIS, VIYSDGRRTFYGDSVK, GRAAGTFDS; each variant's own CDRs replace them letter for letter.
Values are log10 of the apparent Kd in nM; lower means stronger binding.
A mean of the replicates is given; it leaves out those without a signal.
A pair that was not seen in that replicate is written "nd"; this usually means weak binding, but a binder can also be missed.
The authors averaged sequences with at least three values out of six and counted those with two or fewer as poor binders.
The range of this assay differs from that of the first round, and the authors advise against merging the two.
The parent sequence was in this pool as ten entries: three were never detected, three once, and four in most replicates, with averages from 0.34 to 2.37.
As a blank, each scFv also met three strains without target: over all heavy chain designs, 1% of these pairings were detected, typically at 2.08 and seldom below 0.84. The control count says in how many pairings with the empty strains this scFv gave a signal, with their mean in brackets.

CDR-H1,CDR-H2,CDR-H3,"replicates, log10 nM",mean log10 Kd (nM),empty controls
GFTLNEYGIS,VIYSDGRRTFYTDSVK,GRFAGTFRS,nd nd nd 1.40 nd nd,1.40,0/18
GFTLNEYGIS,VIYSDGRRTFYGDSVK,GRAMKTFEQ,nd nd nd nd nd nd,nd,0/18
GFTLDSYGIS,VIYSDGRRTPYGDSVK,GRAAGTALS,nd nd nd nd nd nd,nd,1/18 (1.51)
GFTLDSYGIS,VIYSDGRRTFYGDSVK,GRAAGTKLS,nd nd nd nd nd nd,nd,0/18
GFDLNSYGIS,VIYSDGRRAFYGDSVK,GRAAGWFNS,nd nd nd nd nd nd,nd,0/18
GFDLNSYGIS,VINSDGRRTFAGDSVK,GRAAIWFIS,nd nd nd nd nd nd,nd,0/18
GFTLNDYGIS,VIYSDGRRTQYIDSVK,GRAAGTVDS,nd nd nd nd nd nd,nd,2/18 (2.28)
GFTLNDYGIS,VWYSDGRRTFYGDSVK,GRAALTLIS,nd nd nd nd nd nd,nd,0/18
GFTLNSYGIS,VIYKDGRRTFYGDSVK,GRAAGTNKS,nd nd nd nd nd nd,nd,0/18
GFTKNEYVIS,VIYSDGRRTFYGDSVK,GRAAVTFDQ,nd nd nd nd nd nd,nd,0/18
GFTLNMYGIS,VIYADGRRTFPPDSVK,GRAAGTNKS,nd nd nd nd nd nd,nd,0/18
GFTCDSYGIS,VIYSDGRRTFYGDSVK,GRAAGTALS,nd nd nd nd nd nd,nd,0/18
GFTLNSYGIS,VIYSDGRRTFYSDSVK,GRAGGPFDS,nd nd nd nd nd nd,nd,0/18
GFDLNSYGIS,VIYSDGRRNFYGDSVK,GRAAGWFNS,nd nd nd nd nd nd,nd,0/18
GFTLNSYGIS,VIYADGRRTRYGDSVK,GRAAGTNKS,nd nd nd nd nd nd,nd,0/18
GPTLNSYGIS,VIYSDGRRTFYSDSVK,GSAGGTFDS,nd nd nd nd nd nd,nd,0/18
GFTLNDYGIS,VIYSDGDRTQYIDSVK,GRAARTEDS,nd nd nd nd nd nd,nd,0/18
GFTLNDYGIS,VIYMDGRRTQYIDSVK,GRAAGTFDS,nd nd nd 1.80 nd nd,1.80,0/18
GFPQNEYQIS,VIYADGRRTFYGDSVK,GGAAGTNKS,nd nd nd nd nd nd,nd,0/18
GFTLNDYGIS,VIYSDGRRTQYIDSVK,GRAAGEFDS,nd nd nd nd nd nd,nd,0/18
GFTLDSYGIS,VIYSDGRRTFYGDSVK,GYAAGTALS,nd nd nd nd nd nd,nd,0/18
GFTLDSYGLS,VITSDGRRTNYGDSVK,GRAAGTALS,nd nd nd nd nd nd,nd,0/18
GFTLNSYGIS,VIYSDGRRTFYDDVVK,GQLAGTFDS,nd nd nd nd nd nd,nd,0/18
GFDLNSYGIS,VIYSDGRRTKYGDSVK,GRAAGWFNS,nd nd nd nd nd nd,nd,0/18
GFTLNQYYIS,VIYSDGRRTFASFSVK,GRAAGFMDS,nd nd nd nd nd nd,nd,1/18 (0.47)
GFQLNEYGIS,VIYSDGRGTFYGDSVK,DRAAVTFDQ,nd nd nd nd nd nd,nd,0/18
GFDLNSYGIS,VIYSDGRRTFYLLSVK,GRAAGWFNS,nd nd nd nd nd nd,nd,0/18
GFDLNSYGIS,VIYSDGRRTFYGDSHK,GRAAGWFGS,nd nd nd nd nd nd,nd,0/18
GFTLNQYGIS,VIYSDGIRTFYSDSVK,GRAAPFFDS,nd -1.43 -0.77 -0.30 nd -1.10,-0.90,0/18
GFTLNEYGIS,VIYSDGRRTFYSDAVK,GNAAGEFDS,1.68 1.91 1.32 2.13 1.64 1.42,1.68,0/18
GFTGNEYGIS,VIYSDGRRTFYGDSVK,GRAAVTFDQ,nd nd nd 1.69 nd nd,1.69,0/18
GFTLNDYGIR,VIYADGRRTQYIDSVK,GRGAGTFDS,nd nd nd nd nd nd,nd,0/18
SFTLNDYGIS,VIYSDMRRQQYIDSVK,ARAAGTFDS,nd nd nd nd nd nd,nd,0/18
GFTLNSYGIS,VIYSDGRRTFYDDSVK,GQLAGTFKN,nd nd nd nd nd nd,nd,0/18
GFTLNEYGIS,VIYSDGRRTFTTDSVK,GRFAGTFDT,0.64 2.60 1.18 0.61 0.64 nd,1.13,0/18
GFTLDSYGIS,VIYSDGRRTFYGDSVK,GRAAVTALR,nd nd nd nd nd nd,nd,0/18
GHTLLQYGIS,VIYSSGRFTFYSDSVK,GRAAGFFDS,nd nd nd nd nd nd,nd,0/18
GFTLNSYGIS,VIYADGRMTFYGDSVK,GRAIGTNKS,nd nd nd nd nd nd,nd,0/18
GFMLNSYGIS,VIYSDGRRTFYGDSVK,GRAAGWFNS,nd nd nd nd nd nd,nd,0/18
GFTLNEYGIS,VIIFDGRRTFYDDSVK,GRFAGTFDS,nd nd nd nd nd nd,nd,1/18 (1.55)
RFDLNSTGIS,VIYSDGRRTFYGDSVK,GRAAGWFNS,nd 3.67 nd nd 3.08 nd,3.37,1/18 (2.70)
GKTLNSYGIS,VIYSDGRRTFYSDSVK,GRAGGTFDS,0.00 0.01 -0.05 0.46 -0.05 0.24,0.10,2/18 (1.96)
GFTLNSYGIS,VIYNDGRRTFYEDSVK,GQLAGTFDS,nd nd nd nd 1.96 2.90,2.43,0/18
GFTLNEYGIS,VIYSDGRRTFYGDHVK,GRAALTFIS,nd nd nd nd nd nd,nd,0/18
GFTLNDYGIS,VIYSDMRRTFYGDSVK,GRAAGTLIS,nd nd nd nd nd nd,nd,0/18
GFTLNSYGIS,VIYSDGRRTFYSDSVK,GRAVGTFDS,nd 2.12 nd nd nd nd,2.12,0/18
GFDLNSYGQS,VIYSWGRRTFYCDSVK,QRAADWFNS,nd nd nd nd nd nd,nd,0/18
GFTLNEYGIS,VIYCDGRHTFYGDSVK,GRAAVTFVQ,nd nd nd nd nd nd,nd,0/18
GFDLLSYGIS,VIYSDGRRTFYGDSVK,GRAAGWANS,nd nd nd nd nd nd,nd,0/18
GFDTNSYGIS,VIYSDGRRTFYGDSVK,GRAAGWFNS,nd nd 2.64 2.56 nd nd,2.60,0/18
GFTLNEYGIS,VIYSDGRRTYYTDSVK,GRFAGTFDS,0.46 0.77 0.62 0.55 0.59 0.44,0.57,0/18

The 3 strongest on average among those seen in every replicate, once more:

CDR-H1	CDR-H2	CDR-H3	replicates, log10 nM	mean log10 Kd (nM)	empty controls
GKTLNSYGIS	VIYSDGRRTFYSDSVK	GRAGGTFDS	0.00 0.01 -0.05 0.46 -0.05 0.24	0.10	2/18 (1.96)
GFTLNEYGIS	VIYSDGRRTYYTDSVK	GRFAGTFDS	0.46 0.77 0.62 0.55 0.59 0.44	0.57	0/18
GFTLNEYGIS	VIYSDGRRTFYSDAVK	GNAAGEFDS	1.68 1.91 1.32 2.13 1.64 1.42	1.68	0/18